## scFv variants of Ab-14 (light chain) against a SARS-CoV-2 spike peptide

Source: Li et al. 2023 (doi:10.1038/s41467-023-39022-2), MIT Lincoln Laboratory and A-Alpha Bio; data file from the FLAb repository.

Binding partner: SARS-CoV-2 spike HR2 peptide, sequence PDVDLGDISGINAS.

Parent scFv Ab-14: VH joined to VL by three GGGGS repeats. Changes lie in the light chain CDRs alone.
VH: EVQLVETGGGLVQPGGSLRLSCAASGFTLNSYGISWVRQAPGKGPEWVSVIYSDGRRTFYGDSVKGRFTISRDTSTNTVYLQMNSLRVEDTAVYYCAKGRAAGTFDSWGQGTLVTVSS
VL: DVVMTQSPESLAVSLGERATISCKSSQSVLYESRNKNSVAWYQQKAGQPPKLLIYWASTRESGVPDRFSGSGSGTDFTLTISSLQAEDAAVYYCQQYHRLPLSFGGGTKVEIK

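Phage display of a naive human antibody library on the peptide gave the parent. Designed CDR sequences, proposed from the first random library and measured here. Group labels follow the data file (Ctrl: baseline library sampled from a position-specific scoring matrix, with some repeated check sequences; Rand: our label for a block that the file lists under HC and that is probably the random mutants of the ten best first-round binders; En: ensemble of fine-tuned language models; GP: Gaussian process model; HC: hill climbing; Gen: genetic algorithm; Gibbs: Gibbs sampling; a sequence that several methods proposed may carry one label only). In AlphaSeq, yeast of one mating type display the scFv and yeast of the other type display the target. After mating in shaken culture at 30 °C for 16 h, diploids were selected and their barcode pairs sequenced. The ratio of observed to expected reads was calibrated, replicate by replicate, on BCL2-family standards whose Kd was known from biolayer interferometry. The assay was run in six technical replicates.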

Variants are written as CDR1, CDR2 and CDR3 of the light chain (limits as in the source). Parent: KSSQSVLYESRNKNSVA, WASTRES, QQYHRLPLS. Values are log10 of the apparent Kd in nM; lower means stronger binding. Averages over replicates are reported, and they cover detected replicates only. "n.d." means that the variant was in the library but no mating with the target was seen in that replicate; the authors take this as a sign of poor binding, and no number exists. The parent sequence was in this pool as ten entries: three were never detected, three once, and four in most replicates, with averages from 0.34 to 2.37. The authors' rule: three or more of the six replicates give a measured affinity, fewer mean a poor binder. As a blank, each scFv also met three strains without target: over all light chain designs, 4% of these pairings were detected, typically at 2.64 and seldom below 1.59. For each scFv, signals with the empty controls are counted beside the result, with their mean in brackets. Values of this round are not directly comparable with the first-round values of the same sequences. Where one sequence has several entries in the source, the replicates are listed entry by entry, parted by semicolons.

{"CDR-L1": "KLSQSVLYESRNKNSVA", "CDR-L2": "NASTREM", "CDR-L3": "QQYHRLPLS", "group": "GP_Gen", "log10 Kd, replicates": "-0.27 / -0.20 / -0.28 / -0.51 / -0.35 / -0.26", "mean log10 Kd (nM)": "-0.31", "empty controls": "1 of 18 (2.05)"}
{"CDR-L1": "KSSQSVLYESRSVNSVA", "CDR-L2": "WASTREV", "CDR-L3": "QQYHRLPLS", "group": "Ctrl", "log10 Kd, replicates": "1.54 / 2.07 / 2.21 / n.d. / n.d. / 1.62", "mean log10 Kd (nM)": "1.86", "empty controls": "0 of 18"}
{"CDR-L1": "KLWESVLYESRNKNSVA", "CDR-L2": "HASTRED", "CDR-L3": "QQYHRLPLS", "group": "GP_HC", "log10 Kd, replicates": "0.09 / -0.05 / 0.23 / -0.28 / 0.26 / 0.04", "mean log10 Kd (nM)": "0.05", "empty controls": "1 of 18 (1.76)"}
{"CDR-L1": "KLQQSVLYESRNKNSVA", "CDR-L2": "HASTRES", "CDR-L3": "QQYHRLPLS", "group": "GP_Gen", "log10 Kd, replicates": "0.05 / 0.14 / 0.03 / -0.16 / 0.07 / -0.14", "mean log10 Kd (nM)": "0.00", "empty controls": "1 of 18 (3.13)"}
{"CDR-L1": "KSSQSCLYESRNKNSVA", "CDR-L2": "RASTRES", "CDR-L3": "QQYHRLPLS", "group": "Ctrl", "log10 Kd, replicates": "1.93 / 3.28 / 1.32 / 1.14 / 0.78 / 1.44", "mean log10 Kd (nM)": "1.65", "empty controls": "2 of 18 (2.29)"}
{"CDR-L1": "MVNGIMDHLSKNSNSVA", "CDR-L2": "ETVTREE", "CDR-L3": "QQYDRLPLS", "group": "En_Gen", "log10 Kd, replicates": "0.87 / 0.90 / 0.81 / 0.60 / 0.84 / 0.96", "mean log10 Kd (nM)": "0.83", "empty controls": "2 of 18 (3.41)"}
{"CDR-L1": "HITMGMYVSGRHHSSIA", "CDR-L2": "QAEERAK", "CDR-L3": "QQYDRLPLI", "group": "En_Gen", "log10 Kd, replicates": "1.52 / 1.25 / 1.24 / 1.98 / 1.46 / 1.93", "mean log10 Kd (nM)": "1.56", "empty controls": "1 of 18 (3.05)"}
{"CDR-L1": "KSPDSILYESRNKNSVA", "CDR-L2": "WVSTRES", "CDR-L3": "QQYHRLPLS", "group": "Ctrl", "log10 Kd, replicates": "n.d. / n.d. / 1.77 / n.d. / n.d. / 2.42", "mean log10 Kd (nM)": "2.09", "empty controls": "0 of 18"}
{"CDR-L1": "KSSQSVLYESRNKNSVA", "CDR-L2": "RASTRES", "CDR-L3": "QQYHYLPLS", "group": "Ctrl", "log10 Kd, replicates": "0.33 / 0.33 / 0.07 / 0.15 / 0.32 / 0.05", "mean log10 Kd (nM)": "0.21", "empty controls": "1 of 18 (2.78)"}
{"CDR-L1": "KSSQIWLGMDGNKNSVA", "CDR-L2": "QASQRES", "CDR-L3": "QQYHRLPLS", "group": "GP_Gibbs", "log10 Kd, replicates": "0.44 / 0.38 / 0.31 / 0.56 / 0.70 / 0.85", "mean log10 Kd (nM)": "0.54", "empty controls": "1 of 18 (1.87)"}
{"CDR-L1": "KSSGSVLYESGNKNSVA", "CDR-L2": "HASTRED", "CDR-L3": "QQYHRLPLS", "group": "GP_HC", "log10 Kd, replicates": "0.87 / 0.51 / 0.42 / 0.49 / 0.42 / 0.73", "mean log10 Kd (nM)": "0.57", "empty controls": "1 of 18 (2.79)"}
{"CDR-L1": "YVSIDLAEGWNQQEAVA", "CDR-L2": "GVSYKEK", "CDR-L3": "QQYYKLPLS", "group": "En_Gibbs", "log10 Kd, replicates": "n.d. / n.d. / n.d. / n.d. / n.d. / n.d.", "mean log10 Kd (nM)": "n.d.", "empty controls": "1 of 18 (2.42)"}
{"CDR-L1": "KLSMTHELEHVNRNSVA", "CDR-L2": "ELVTRIS", "CDR-L3": "QQYNRLPLS", "group": "En_Gen", "log10 Kd, replicates": "1.25 / 0.59 / -0.12 / 0.48 / 0.94 / 0.43", "mean log10 Kd (nM)": "0.60", "empty controls": "0 of 18"}
{"CDR-L1": "KSSGSVLEESSNKNSVA", "CDR-L2": "WASTRES", "CDR-L3": "QQYVRYPLS", "group": "Ctrl", "log10 Kd, replicates": "n.d. / 3.15 / n.d. / n.d. / 2.65 / 3.09", "mean log10 Kd (nM)": "2.96", "empty controls": "2 of 18 (2.70)"}
{"CDR-L1": "MISQLMNMGQFAINSVA", "CDR-L2": "QASIRNA", "CDR-L3": "QQYDRLPLM", "group": "En_Gen", "log10 Kd, replicates": "1.45 / 1.74 / 2.14 / 1.44 / 1.73 / 1.86", "mean log10 Kd (nM)": "1.73", "empty controls": "1 of 18 (1.86)"}
{"CDR-L1": "NLMGQGDHSIKHANSIA", "CDR-L2": "NVDIVDM", "CDR-L3": "QQYAHLPLS", "group": "En_Gibbs", "log10 Kd, replicates": "1.41 / 1.02 / 0.80 / 1.10 / 1.13 / 1.49", "mean log10 Kd (nM)": "1.16", "empty controls": "0 of 18"}
{"CDR-L1": "KSSISYLYESRNKNSVA", "CDR-L2": "EASTRES", "CDR-L3": "HQYHRLPLS", "group": "Rand", "log10 Kd, replicates": "n.d. / n.d. / n.d. / n.d. / n.d. / n.d.", "mean log10 Kd (nM)": "n.d.", "empty controls": "2 of 18 (1.00)"}
{"CDR-L1": "HLSLRLSYGKMLQNAVA", "CDR-L2": "GVQARMT", "CDR-L3": "QQYARLPLL", "group": "En_Gibbs", "log10 Kd, replicates": "n.d. / n.d. / n.d. / 1.07 / 1.29 / 3.00", "mean log10 Kd (nM)": "1.79", "empty controls": "0 of 18"}
{"CDR-L1": "MISQLMNMGTFAINSVA", "CDR-L2": "QAEIRNE", "CDR-L3": "QQYDRLPLI", "group": "En_Gen", "log10 Kd, replicates": "n.d. / 2.09 / 2.32 / 3.35 / n.d. / 2.17", "mean log10 Kd (nM)": "2.49", "empty controls": "0 of 18"}
{"CDR-L1": "KLSQSFLYESRNKNSVA", "CDR-L2": "DANTRES", "CDR-L3": "QQYHRLPLS", "group": "GP_HC", "log10 Kd, replicates": "-0.09 / -0.36 / -0.48 / -0.40 / -0.22 / -0.09", "mean log10 Kd (nM)": "-0.27", "empty controls": "1 of 18 (1.37)"}
{"CDR-L1": "KLSQSVLYESRNKNSVA", "CDR-L2": "EASTRLQ", "CDR-L3": "QQYHRLPLS", "group": "GP_Gen", "log10 Kd, replicates": "0.25 / 0.22 / 0.62 / 0.11 / 0.40 / 0.73", "mean log10 Kd (nM)": "0.39", "empty controls": "0 of 18"}
{"CDR-L1": "MVNGLTDHLSKNTNNVA", "CDR-L2": "ETTTREA", "CDR-L3": "QQYDRLPLV", "group": "En_Gen", "log10 Kd, replicates": "0.63 / 0.54 / 0.37 / 0.58 / 0.77 / 0.49", "mean log10 Kd (nM)": "0.56", "empty controls": "1 of 18 (2.27)"}
{"CDR-L1": "KSSQSVLYESRNKNSVA", "CDR-L2": "WASTRES", "CDR-L3": "QSYHRLPLS", "group": "Ctrl", "log10 Kd, replicates": "n.d. / n.d. / 2.36 / n.d. / 4.00 / 2.10; n.d. / n.d. / n.d. / n.d. / n.d. / 2.60; 3.48 / n.d. / 3.06 / n.d. / 2.73 / n.d.; n.d. / n.d. / n.d. / n.d. / n.d. / n.d.; 3.19 / 1.38 / 1.76 / 2.00 / 2.37 / 3.05", "mean log10 Kd (nM)": "2.62", "empty controls": "3 of 90 (2.55)"}
{"CDR-L1": "KIRVNHLMFSQMESNIA", "CDR-L2": "GSSVRSR", "CDR-L3": "QQYYHLPLT", "group": "En_Gibbs", "log10 Kd, replicates": "1.58 / 1.38 / 1.39 / 1.48 / 1.40 / 1.47", "mean log10 Kd (nM)": "1.45", "empty controls": "0 of 18"}
{"CDR-L1": "KQSQSVLYEDVNKNSVA", "CDR-L2": "DASTRES", "CDR-L3": "QQYHRLPLS", "group": "GP_HC", "log10 Kd, replicates": "0.38 / 0.39 / 0.14 / 0.32 / 0.49 / 0.40", "mean log10 Kd (nM)": "0.36", "empty controls": "0 of 18"}
{"CDR-L1": "KISQSVPYEDRNKNSVA", "CDR-L2": "NASTRES", "CDR-L3": "QQYHRLPLS", "group": "GP_Gen", "log10 Kd, replicates": "n.d. / n.d. / 2.35 / n.d. / n.d. / 2.22", "mean log10 Kd (nM)": "2.28", "empty controls": "0 of 18"}
{"CDR-L1": "KLSQSEGYESRNKNSVA", "CDR-L2": "NASQRES", "CDR-L3": "QQYHRLPLS", "group": "GP_Gen", "log10 Kd, replicates": "0.57 / 0.36 / 0.24 / 0.17 / 0.04 / 0.48", "mean log10 Kd (nM)": "0.31", "empty controls": "4 of 18 (2.81)"}
{"CDR-L1": "WLNWEGQGDDRGMSNIA", "CDR-L2": "DSDLRMA", "CDR-L3": "QQYHRLPLS", "group": "En_Gibbs", "log10 Kd, replicates": "0.26 / 0.25 / 0.13 / 0.25 / 0.33 / 0.17", "mean log10 Kd (nM)": "0.23", "empty controls": "2 of 18 (2.26)"}
{"CDR-L1": "KMSGSVMMLSRNWNSVA", "CDR-L2": "QASTREQ", "CDR-L3": "QQYHRLPLS", "group": "GP_Gibbs", "log10 Kd, replicates": "-0.31 / -0.50 / -0.20 / -0.34 / -0.24 / -0.15", "mean log10 Kd (nM)": "-0.29", "empty controls": "0 of 18"}

5 of these entries, quoted again:

CDR-L1,CDR-L2,CDR-L3,group,"log10 Kd, replicates",mean log10 Kd (nM),empty controls
KSSQSVLYESRNKNSVA,RASTRES,QQYHYLPLS,Ctrl,0.33 / 0.33 / 0.07 / 0.15 / 0.32 / 0.05,0.21,1 of 18 (2.78)
KLQQSVLYESRNKNSVA,HASTRES,QQYHRLPLS,GP_Gen,0.05 / 0.14 / 0.03 / -0.16 / 0.07 / -0.14,0.00,1 of 18 (3.13)
KSSISYLYESRNKNSVA,EASTRES,HQYHRLPLS,Rand,n.d. / n.d. / n.d. / n.d. / n.d. / n.d.,n.d.,2 of 18 (1.00)
NLMGQGDHSIKHANSIA,NVDIVDM,QQYAHLPLS,En_Gibbs,1.41 / 1.02 / 0.80 / 1.10 / 1.13 / 1.49,1.16,0 of 18
KSSGSVLYESGNKNSVA,HASTRED,QQYHRLPLS,GP_HC,0.87 / 0.51 / 0.42 / 0.49 / 0.42 / 0.73,0.57,1 of 18 (2.79)